# Earlier results as cited in publication PMC11042244 (RSC Medicinal Chemistry, 2024).
# Test system: HNE
# Design: method as in PMID 12161131
# Conditions: printed in picture of Fig. 1; cited from earlier work
compound,measurement,value
"CC(C)(C)C(=O)Oc1ccc(S(=O)(=O)Nc2ccccc2C(=O)NCC(=O)O)cc1 [Sivelestat, reference compound]",IC50,44 nM
